High-throughput results (PubChem)
Nrf2 ARE act – activators of Nrf2 (ARE) signaling. AREc32 ARE-luciferase reporter (MCF7-derived line), luminescence, 24 h. 410,000 tested, 0.31% active. Potency, µM (doses to about 46.1 µM), usual class: activators. AID 624171; also: nearly all actives have a fitted effect of over 65% in size
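Luciferase luminescence (Steady-Glo, 30 min at room temperature) served as the read-out of ARE activation in AREc32 cells treated with compounds for 24 hr at 37 deg C.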
miR-21 reporter – raises the signal of a miR-21 reporter | HeLa miR-21 FLuc reporter, luciferase, 48 h | Potency, µM (highest dose often 38.3 µM) | 340,000 tested, under 10 active | AID 2288; active = well fitted rising curve with a large enough effect; inconclusive = small, poorly fitted or top-dose-only effect; inactive = no such curve, though single readings can be large or run the other way;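 also: miR-21 action dims this reporter so a rising signal means less miR-21 action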
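HeLa cells endogenously expressing miR-21, stably carrying CMV-driven firefly luciferase with a downstream miR-21 binding site, 2000 cells/well. Titrations up to approximately 40 uM, 48 hours; luciferase luminescence read.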
Nrf2 inh – Nrf2 pathway inhibition | A549 ARE-Fluc reporter, luciferase luminescence, 18-24 h | Potency, µM (highest dose often 46 µM), usual class: inhibitors | 360,000 tested, 2.1% active | AID 504444; also: nearly all actives have a fitted effect of over 60% in size
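Two sequential reads on A549 ARE_Fluc cells exposed to compound for 18-24 h: a CellTiter-Fluor fluorescence read for viability, then a luciferase luminescence read for Nrf2/ARE activity.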
PI4K2A inh – inhibitors of human PI4K2A; purified PI4K2A, ADP-Glo luminescence, 1 h; active compounds read low; activity change, negative = inhibition, % at 76.9 µM; 420,000 tested, 0.13% active; AID 1346378; in the data active = activity change below about -50%; inconclusive = mostly about -30% to -49%
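Compounds are screened against recombinant PI4K2A using PI as substrate and ATP, the latter dispensed at 300 microM. Reactions run one hour at ambient temperature before ADP-Glo detection; full inhibition defined by wells lacking enzyme.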
GALK inhibitor – inhibitors of human galactokinase | Purified GALK, Kinase-Glo residual ATP luminescence | Potency, µM (series often up to 57.5 µM), usual class: inhibitors | 270,000 tested, 0.007% active
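5 nM enzyme, 35 uM ATP, 100 uM galactose, 20 mM HEPES pH8.0, 5 mM MgCl2; 1 h RT; residual ATP by Kinase-Glo Plus luminescence, qHTS format.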
A549 tox – A549 cytotoxicity, counter-screen for Nrf2 inhibitors | AID 504648 | Potency, µM (highest dose often 46 µM), hits mostly inhibitors | A549 ARE-Fluc cells, CellTiter-Fluor viability, 18-24 h | 390,000 tested, 0.16% active
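A549 ARE-Fluc cells in 5% FBS OPTI-MEM, 5000 cells/well, rested 2 h then exposed to compounds in concentration-response for 18-24 h at 37 °C. Viability by CellTiter-Fluor fluorescence (Ex 405/Em 525) after 30 min; luciferase luminescence (BugLite, 15 min, RT) read afterwards.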
Hits are given with their value; n = inactive; u = inconclusive; x = not tested or not shown. This is a sample that favours compounds with a hit; in the whole collection about 2.2% have one here. Unless noted, calls follow the shape of the dose curve; as a rule, active = well fitted curve in the direction sought with a large enough effect; inconclusive = small, poorly fitted or top-dose-only effect, or another doubt; inactive = no such curve, though single readings can be large; an effect the other way counts as inactive or inconclusive.

SMILES	Nrf2 ARE act	miR-21 reporter	Nrf2 inh	PI4K2A inh	GALK inhibitor	A549 tox
CCc1nc2ccccc2c(=O)n1NC(=O)c1c(O)c2ccccc2[nH]c1=O	n	n	n	n	n	n
CCCn1c(=O)c(C(=O)NNS(=O)(=O)c2ccc(C)cc2)c(O)c2ccccc21	n	n	u	n	n	n
CCn1c(=O)c(C(=O)NNS(=O)(=O)c2ccc(C)cc2)c(O)c2ccccc21	n	n	15µM	n	n	n
CN(C)[C@H]1CCN(c2cccc3c2S(=O)(=O)N(C2CC2)CCCO3)C1	x	x	x	n	x	x
c1nc(NCCc2cnc[nH]2)c2ccc(-c3ccc4c(c3)OCO4)cc2n1	x	x	n	x	x	n
COC(=O)C[C@@H]1CC[C@H]2[C@H](COc3ccc(NC(=O)c4ccc(OC)cc4)cc3C(=O)N2C)O1	x	x	x	n	x	x
OC(c1ccccc1)(c1ccccc1)C1CCN(CCCNc2ccccc2F)CC1	x	x	x	n	x	x
Oc1ccc(/C=N/Nc2nc(-c3cccnc3)nc3ccccc23)c(O)c1	n	n	21µM	n	n	n
COc1ccc(Cn2ccc3ccc(-c4ccc5ccn(Cc6cccc(F)c6)c5c4)cc32)cc1	x	x	x	n	x	x
O=c1c2ccccc2nc2n1CCO2	n	n	n	n	n	n
CCc1c2c(nc3ccc4c(c13)OCCO4)-c1nc3ccccc3c(=O)n1C2	x	x	0.26µM	x	x	n
COCCNC(=O)c1cccc(Nc2nc(-c3ccccc3)c3cc(Cl)ccc3n2)c1	n	n	15µM	n	n	u
O=C(Nc1ccc2snnc2c1)Nc1cccc2ccccc12	n	u	16µM	n	n	n
C(C#CCCCCCCCCC[n+]1ccccc1)#CCCCCCCCCC[n+]1ccccc1	n	u	12µM	n	n	u
COC(=O)[C@]12C[C@H](CC(=O)NCCc3ccccc3OC)C(=O)N(Cc3cccc4ccccc34)C1=C[C@H](C1CCCC1)O[C@@H]2C	x	x	x	n	x	x
NS(=O)(=O)c1ccc(CCNC(=O)CN2CCN(c3cccc(Cl)c3)CC2)cc1	n	n	u	n	n	n
NS(=O)(=O)c1ccc(CCNC(=O)CN2CCN(c3ccc(F)cc3)CC2)cc1	n	n	16µM	n	n	n
CS(=O)(=O)c1nc([N+](=O)[O-])nn1CCCc1ccccc1	n	x	u	n	x	n
Cn1nc([N+](=O)[O-])nc1S(C)(=O)=O	n	u	23µM	n	n	n
OC(C1=CC(=Cc2ccncc2)c2ccccc21)c1ccncc1 (stereo unspecified)	u	x	21µM	n	x	n
CC(C)C[C@@H]1COc2cc(N3CCCC3)ccc2S(=O)(=O)N1C	x	x	x	n	x	x
O=C(O)CC1(CC(=O)NCc2ccc(C(F)(F)F)cc2)CCCCC1	n	n	u	n	n	n
O=C(O)CC1(CC(=O)Nc2cc(C(F)(F)F)cc(C(F)(F)F)c2)CCCCC1	n	n	23µM	n	n	n
COc1cccc(C2c3c(ncn(-c4ccccn4)c3=N)Oc3ccc4ccccc4c32)c1 (stereo unspecified)	x	x	u	x	x	n
CC(C)CN(CC(C)C)C(=S)Nc1ccc(Cl)cc1	n	n	26µM	n	n	n
SMILES	Nrf2 ARE act	miR-21 reporter	Nrf2 inh	PI4K2A inh	GALK inhibitor	A549 tox
C=CC(=O)Nc1cccc(CN2C(=O)N(c3cc(OC)cc(OC)c3)Cc3cnc(NCCCCN(CC)CC)nc32)c1	n	x	n	n	x	6.5µM
O=C1c2ccccc2C(=O)N1c1cccc(=O)[nH]1	x	x	n	x	x	n
Nn1c(Nc2ccccc2)nc2sc3c(c2c1=O)CCC3	n	n	16µM	n	n	n
Cc1ccc(C)c(NC(=O)CCCCCN2C(=O)[C@@H]3Cc4ccccc4CN3C2=O)c1	n	n	n	n	n	n
Cc1ccc(NC(=O)CCCCCN2C(=O)[C@@H]3Cc4ccccc4CN3C2=O)c(Cl)c1	n	n	23µM	n	n	n
CN(Cc1ccccc1)c1ncnc2sccc12	n	n	16µM	n	n	n
Cc1ccc(CNc2ncnc3ccc(-c4ccc5c(c4)OCO5)cc23)o1	x	x	n	x	x	n
COc1ccc(NC(=O)COC(=O)c2c3c(nc4ccccc24)CCCC3)cc1Cl	n	n	23µM	n	n	u
O=C(O)CCn1c2c(c3ccccc31)C[C@H](NS(=O)(=O)c1ccc(F)cc1)CC2	x	x	x	n	x	x
CC(=O)Nc1ccc(NC(=O)C2CCC(N3C(=O)C4C5C=CC(C6CC56)C4C3=O)CC2)cc1 (stereo unspecified)	n	n	26µM	n	n	n
COc1ccc(NC(=O)C2CCC(N3C(=O)C4C5C=CC(C5)C4C3=O)CC2)cc1 (stereo unspecified)	n	n	n	n	n	n
O=C(Nc1ccc(Cc2ccncc2)cc1)C1CCC(N2C(=O)C3C4C=CC(C5CC45)C3C2=O)CC1 (stereo unspecified)	n	n	18µM	n	n	u
CC(=O)OC12CCCN(C1)/C(=C/c1cccc(N(C)C)c1)C2 (stereo unspecified)	x	x	x	n	x	x
CCc1ccc2oc(-c3cc(N=Cc4cccc(OC)c4O)ccc3O)nc2c1	10µM	n	u	n	n	n
COc1ccc(NC(=O)N2CCC(c3nc4ccc(Cl)cc4[nH]3)CC2)cc1OC	x	x	x	n	x	x
O=C1C=CC(n2cc(F)c(=O)[nH]c2=O)O1 (stereo unspecified)	25µM	x	x	n	x	x
O=c1[nH]c(=O)n([C@H]2CCCO2)cc1F	x	x	x	n	x	x
COC(=O)Cn1nc(-c2ccccc2)c2cccc(C(F)(F)F)c21	x	x	x	n	x	x
O=C1C=C(N2CCOCC2)c2cccc3cccc1c23	u	x	x	n	x	x
O=C1C=C(N2CCOCC2)c2ccccc2C1=O	n	u	21µM	-75	13µM	u
Nc1[nH]c2cc([N+](=O)[O-])ccc2c1-c1ccccn1	n	n	n	n	n	13µM
Cc1ccc(-c2cc(-c3nnc(SCC(=O)N4CCOCC4)n3N)[nH]n2)cc1	x	x	x	n	x	x
COc1ccc(-n2sc3c(c2=S)-c2cc(OC)ccc2NC3(C)C)cc1	n	n	21µM	n	n	n
COc1cc(/C=N/NC(=O)c2ccc(-c3ccccc3)cc2)cc(OC)c1OC	n	n	u	n	x	n
COc1cc(/C=N/NC(=O)c2cc(-c3ccccc3)sc2N)cc(OC)c1OC	n	n	16µM	n	n	n
O=C1C(=O)N(c2ccccn2)C(c2ccc(Br)cc2)/C1=C(/O)c1ccc(Br)cc1 (stereo unspecified)	n	n	u	n	n	n
O=C1C(=O)N(c2ccccn2)C(c2ccc(F)cc2)/C1=C(/O)c1ccc(Br)cc1 (stereo unspecified)	n	n	8.2µM	n	n	n
